In ChEMBL document CHEMBL6071155, “Discovery of selective Orai channel blockers bearing an indazole or a pyrazole scaffold” (Eur J Med Chem, 2024):
Active and inactive are the calls of the source. The rule behind the calls is not given here.

Sequences of proteins named here, by UniProt entry; tags and fusion partners are left off.
Calcium release-activated calcium channel protein 1 (Homo sapiens), Q96D31, UniProt Q96D31, whole entry G98S: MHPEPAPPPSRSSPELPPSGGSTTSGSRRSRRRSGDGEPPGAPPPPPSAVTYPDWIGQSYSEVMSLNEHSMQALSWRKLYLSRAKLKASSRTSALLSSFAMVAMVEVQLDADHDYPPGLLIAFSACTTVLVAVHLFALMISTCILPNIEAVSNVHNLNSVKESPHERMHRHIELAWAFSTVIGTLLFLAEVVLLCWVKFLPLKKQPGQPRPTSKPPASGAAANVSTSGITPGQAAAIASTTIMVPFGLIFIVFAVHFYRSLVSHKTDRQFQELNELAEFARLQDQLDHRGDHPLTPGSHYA

System: Calcium release-activated calcium channel protein 1 (Homo sapiens), Q96D31 [G98S]
Experiment: Reversible inhibition of myc-tagged human Orai-1 G98S mutant expressed in HEK293 cells assessed as reduction in inward current at 10 uM measured upto 6 mins by patch clamp electrophysiology
Type: cell-based

SMILES: Cc1nnsc1C(=O)Nc1ccc(-n2nc(C(F)(F)F)cc2C(F)(F)F)cc1
- inhibition: Active
